For this assay, the target named is T1, serotonin reuptake (Rattus norvegicus, UniProt P31652).
T1 construct: synaptosomes prepared from the rat brain; from tissue; host or cells: rat brain synaptosomes
The assay can be described thus: Serotonin reuptake inhibition assay ([3H]serotonin, synaptosomes prepared from the rat brain). The class given is biochemical. The conditions noted are these: read-out: Percent inhibition (10^−7 M).

By UniProt entry, the sequences of proteins in these tests, tags left out.
UniProt P31652, whole entry: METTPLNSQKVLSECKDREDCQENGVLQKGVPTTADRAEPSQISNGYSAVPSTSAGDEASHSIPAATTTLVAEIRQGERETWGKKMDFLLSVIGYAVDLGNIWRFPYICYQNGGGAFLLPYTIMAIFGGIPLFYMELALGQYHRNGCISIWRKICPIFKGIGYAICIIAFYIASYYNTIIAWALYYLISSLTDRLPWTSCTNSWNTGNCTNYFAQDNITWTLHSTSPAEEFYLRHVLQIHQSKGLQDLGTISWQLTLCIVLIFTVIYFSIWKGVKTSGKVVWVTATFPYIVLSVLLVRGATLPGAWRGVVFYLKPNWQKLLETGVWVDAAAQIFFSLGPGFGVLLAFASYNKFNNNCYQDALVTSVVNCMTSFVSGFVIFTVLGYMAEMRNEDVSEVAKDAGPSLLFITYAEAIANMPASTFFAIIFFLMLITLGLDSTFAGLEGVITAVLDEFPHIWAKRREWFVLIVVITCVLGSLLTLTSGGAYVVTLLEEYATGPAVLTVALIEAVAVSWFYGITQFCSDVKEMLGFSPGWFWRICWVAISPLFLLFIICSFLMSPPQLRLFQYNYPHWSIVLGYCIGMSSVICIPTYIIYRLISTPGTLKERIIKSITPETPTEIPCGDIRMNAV

The structures appear in SMILES notation.

`Fc1ccc([C@@H]2CCNC[C@H]2COc2ccc3c(c2)OCO3)cc1` [Paroxetine, reference compound]: the inhibition at 0.1 µM came out at 97%.

A word on the inhibition: it is how much of the control response was suppressed.
